These results are taken from ChEMBL document CHEMBL3621197, “Design, synthesis, and preliminary bioactivity studies of substituted purine hydroxamic acid derivatives as novel histone deacetylase (HDAC) inhibitors” (Medchemcomm, 2014).

For this test, the target named is T1, Protein deacetylase HDAC6 (Homo sapiens) (UniProt Q9UBN7).
T1 sequence (whole entry): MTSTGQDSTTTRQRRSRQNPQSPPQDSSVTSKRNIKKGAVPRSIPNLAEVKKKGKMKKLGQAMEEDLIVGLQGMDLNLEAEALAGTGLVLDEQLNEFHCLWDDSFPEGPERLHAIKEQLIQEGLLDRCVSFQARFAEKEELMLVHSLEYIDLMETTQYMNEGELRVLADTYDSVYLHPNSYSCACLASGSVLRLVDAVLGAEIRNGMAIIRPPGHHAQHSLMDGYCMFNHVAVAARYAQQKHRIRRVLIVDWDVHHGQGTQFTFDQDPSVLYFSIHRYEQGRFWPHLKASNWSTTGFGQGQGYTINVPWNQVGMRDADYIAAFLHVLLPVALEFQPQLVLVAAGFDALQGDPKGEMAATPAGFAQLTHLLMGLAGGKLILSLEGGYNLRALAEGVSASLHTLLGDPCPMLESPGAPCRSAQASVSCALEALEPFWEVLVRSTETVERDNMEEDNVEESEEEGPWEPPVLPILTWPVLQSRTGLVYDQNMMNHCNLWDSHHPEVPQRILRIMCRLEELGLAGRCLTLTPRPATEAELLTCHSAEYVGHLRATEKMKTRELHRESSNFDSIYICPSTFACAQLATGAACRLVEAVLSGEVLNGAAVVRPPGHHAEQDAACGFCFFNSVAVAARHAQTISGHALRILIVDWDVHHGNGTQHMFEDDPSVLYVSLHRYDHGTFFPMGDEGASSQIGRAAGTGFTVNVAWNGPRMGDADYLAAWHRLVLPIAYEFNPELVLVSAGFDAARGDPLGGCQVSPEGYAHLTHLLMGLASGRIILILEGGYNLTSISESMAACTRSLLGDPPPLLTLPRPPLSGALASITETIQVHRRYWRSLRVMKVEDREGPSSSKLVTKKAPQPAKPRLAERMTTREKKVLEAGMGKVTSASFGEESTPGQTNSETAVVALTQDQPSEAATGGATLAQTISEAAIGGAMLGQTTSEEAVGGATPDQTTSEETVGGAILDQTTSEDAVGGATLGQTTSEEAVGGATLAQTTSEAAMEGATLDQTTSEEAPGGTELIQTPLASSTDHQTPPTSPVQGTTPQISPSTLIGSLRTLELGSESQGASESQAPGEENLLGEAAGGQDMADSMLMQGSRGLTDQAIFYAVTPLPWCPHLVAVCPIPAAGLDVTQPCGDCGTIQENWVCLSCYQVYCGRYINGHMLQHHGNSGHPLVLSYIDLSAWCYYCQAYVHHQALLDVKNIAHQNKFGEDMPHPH
As to the kind of experiment: Potency index, ratio of SAHA IC50 to compound IC50 for recombinant full length human HDAC6 expressed in Baculovirus infected Sf9 cells.

In the case of `O=C(CCCCCNC(=O)Cn1cnc2c(Nc3ccccc3)nc(Nc3ccccc3)nc21)NO`, the Ratio IC50 worked out at 8.

As to `O=C(CCCCCCNC(=O)Cn1cnc2c(Nc3ccccc3)nc(Nc3ccccc3)nc21)NO`, the Ratio IC50 came to 8.

In the case of `O=C(CCCCCNC(=O)Cn1cnc2c(N3CCOCC3)nc(Nc3ccccc3)nc21)NO`, the Ratio IC50 stood at 8.
